One molecule from patent US7531500B2, “Preventing airway mucus production by administration of EGF-R antagonists” (The Regents of the University of California, priority 1998, dated 2009) can be followed below.

In this assay the target is EGFR (Homo sapiens, UniProt P00533). Description: Immunoprecipitation of EGF-R and immunoblotting for tyrosine phosphorylation in NCI-H292 cells. The assay is classed as cell-based. Set-up: These cells express EGF-R constitutively; endogenous in cells; host or cells: NCI-H292 (human pulmonary mucoepidermoid carcinoma). The following applies: pretreatment of NCI-H292 cells. The protocol:
Immunoprecipitation for EGF-R Protein and Immunoblotting for Tyrosine Phosphorylation. Cells were serum-starved for 24 h and then stimulated with TGFα, H2O2, or the supernatant of activated neutrophils for 15 min. After stimulation, cells were lysed and incubated for 30 min in an orbital shaker at 4° C. To remove insoluble material, cell lysates were centrifuged at 14,000 rpm for 5 min at 4° C. Aliquots of supernatants containing equal amounts of protein were immunoprecipitated with anti-EGF receptor antibody (polyclonal, Ab4, Calbiochem) and 20 μl of protein A-agarose (Santa Cruz) for 2 h at 4° C. Precipitates were washed three times with 0.5 ml of lysis buffer, suspended in SDS sample buffer, and boiled for 5 min. Proteins were separated by SDS-PAGE in 8.0% acrylamide gel. The resulting gel was equilibrated in the transfer buffer: 25 mM Tris-HCl, 192 mM glycine, 20% (vol/vol) methanol, pH 8.3. The proteins were then transferred electrophoretically to nitrocellulose membranes (0.22 μm), blocked with 5% fat-free skimmed milk in PBS containing 0.05% Tween 20 overnight and then incubated with monoclonal anti-phosphotyrosine antibody (1:100,Santa Cruz) for 1 h. Bound antibody was visualized according to a standard protocol for the avidin-biotin-alkaline phosphatase complex method (ABC kit, Vector Laboratories).
A general note: In western blotting, separated proteins are transferred to a membrane and probed.

Regarding `COc1cc2ncnc(Nc3cccc(Cl)c3)c2cc1OC` [AG1478], the “EGF-R tyrosine phosphorylation by all stimuli” value is recorded as “inhibited”.
